A value given as a limit tells only on which side of the number the result lay.

Chains of the proteins cited; added tags and fusions are not shown.
UniProt P35372, whole entry, looked up: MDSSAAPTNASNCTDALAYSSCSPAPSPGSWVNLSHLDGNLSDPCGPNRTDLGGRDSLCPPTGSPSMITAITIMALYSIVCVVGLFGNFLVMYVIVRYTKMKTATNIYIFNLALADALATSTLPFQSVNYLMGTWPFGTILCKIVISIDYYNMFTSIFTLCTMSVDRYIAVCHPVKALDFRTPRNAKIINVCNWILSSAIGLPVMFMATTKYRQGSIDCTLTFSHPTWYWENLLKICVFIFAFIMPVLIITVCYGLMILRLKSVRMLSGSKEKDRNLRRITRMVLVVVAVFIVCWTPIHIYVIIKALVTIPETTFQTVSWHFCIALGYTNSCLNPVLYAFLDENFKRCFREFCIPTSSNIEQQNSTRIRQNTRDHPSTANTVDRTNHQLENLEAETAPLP

The experiment deals with human μ-opioid receptor (Homo sapiens, UniProt P35372). The conditions noted are these: read-out: MU Ki nM; Table 2 (dual compounds); CHO-K1 membranes, 1 nM [3H]-DAMGO.
Usually Ki stands for the dissociation constant of the complex between target and ligand, obtained from inhibition or displacement. As for `CNCCC(Oc1cccc(CN2CCC(c3ccccc3)(N(C)C)CC2)c1)c1cccs1` (centres unmarked) [Example 2, N,N-dimethyl-1-(3-(3-(methylamino)-1-(thiophen-2-yl)propoxy)benzyl)-4-phenylpiperidin-4-amine], the Ki was less than 100 nM.

On to `CNCCC(Oc1cccc(CN2CCC(c3cccc(O)c3)CC2)c1)c1cccs1` (centres unmarked) [Example 3, 3-(1-(3-(3-(Methylamino)-1-(thiophen-2-yl)propoxy)benzyl)piperidin-4-yl)phenol], for which the Ki fell in the range of 100 to 500 nM.

For the compound `CNCCC(Oc1cccc(CN2CCC(c3cccc(O)c3)(N(C)C)CC2)c1)c1cccs1` (centres unmarked) [Example 5, 3-(4-(Dimethylamino)-1-(3-(3-(methylamino)-1-(thiophen-2-yl)propoxy)benzyl)piperidin-4-yl)phenol], the Ki is less than 100 nM.

Consider `CNCCC(Oc1cccc(C(=O)N2CCC(c3ccccc3)(N(C)C)CC2)c1)c1cccs1` (centres unmarked) [Example 7, (4-(Dimethylamino)-4-phenylpiperidin-1-yl)(3-(3-(methylamino)-1-(thiophen-2-yl)propoxy)phenyl)methanone], for which the Ki fell in the range of 500 to 1000 nM.

Regarding `CNCC[C@H](Oc1cccc(CN2CCC(c3cccc(O)c3)(N(C)C)CC2)c1)c1cccs1` [Example 14, (S)-3-(4-(dimethylamino)-1-(3-(3-(methylamino)-1-(thiophen-2-yl)propoxy)benzyl)piperidin-4-yl)phenol], the Ki is less than 100 nM.

`CNCC[C@H](Oc1cccc(CN2CCC(c3ccccc3)(N(C)C)CC2)c1)c1cccs1` [Example 15, (S)-N,N-dimethyl-1-(3-(3-(methylamino)-1-(thiophen-2-yl)propoxy)benzyl)-4-phenylpiperidin-4-amine]: the Ki is less than 100 nM.

As for `CNCC[C@@H](Oc1cccc(CN2CCC(c3ccccc3)(N(C)C)CC2)c1)c1cccs1` [Example 16, (R)-N,N-dimethyl-1-(3-(3-(methylamino)-1-(thiophen-2-yl)propoxy)benzyl)-4-phenylpiperidin-4-amine], the Ki lay in the range of 100 to 500 nM.

As to `CNCC[C@@H](Oc1cccc(CN2CCC(c3cccc(O)c3)(N(C)C)CC2)c1)c1cccs1` [Example 17, (R)-3-(4-(dimethylamino)-1-(3-(3-(methylamino)-1-(thiophen-2-yl)propoxy)benzyl)piperidin-4-yl)phenol], the Ki is less than 100 nM.

`CNCCC(OCc1cccc(CN2CCC(c3ccccc3)(N(C)C)CC2)c1)c1cccs1` (centres unmarked) [Example 20, N,N-dimethyl-1-(3-((3-(methylamino)-1-(thiophen-2-yl)propoxy)methyl)benzyl)-4-phenylpiperidin-4-amine]: the Ki was 100 to 500 nM.

As to `CNCC[C@H](OCc1cccc(CN2CCC(c3ccccc3)(N(C)C)CC2)c1)c1cccs1` [Example 21, (S)-N,N-dimethyl-1-(3-((3-(methylamino)-1-(thiophen-2-yl)propoxy)methyl)benzyl)-4-phenylpiperidin-4-amine], the inhibitory constant (Ki) lay within 100 to 500 nM.

On to `CNCC[C@@H](OCc1cccc(CN2CCC(c3ccccc3)(N(C)C)CC2)c1)c1cccs1` [Example 22, (R)-N,N-dimethyl-1-(3-((3-(methylamino)-1-(thiophen-2-yl)propoxy)methyl)benzyl)-4-phenylpiperidin-4-amine], for which the Ki was in the range of 100 to 500 nM.

Take `CNCC[C@H](OCc1cccc(CN2CCC(c3cccc(O)c3)(N(C)C)CC2)c1)c1cccs1` [Example 23, (S)-3-(4-(dimethylamino)-1-(3-((3-(methylamino)-1-(thiophen-2-yl)propoxy)methyl)benzyl)piperidin-4-yl)phenol]: the Ki is less than 100 nM.

Consider `CNCC[C@@H](OCc1cccc(CN2CCC(c3cccc(O)c3)(N(C)C)CC2)c1)c1cccs1` [Example 24, (R)-3-(4-(dimethylamino)-1-(3-((3-(methylamino)-1-(thiophen-2-yl)propoxy)methyl)benzyl)piperidin-4-yl)phenol], for which the Ki was less than 100 nM.

Regarding `CNCCC(Oc1cccc(N2CCC(c3ccccc3)(N(C)C)CC2)c1)c1cccs1` (centres unmarked) [Example 43, N,N-dimethyl-1-(3-(3-(methylamino)-1-(thiophen-2-yl)propoxy)phenyl)-4-phenylpiperidin-4-amine], the Ki lay within 500 to 1000 nM.

Consider `CNCCC(Oc1ccc(CN2CCC(c3ccccc3)(N(C)C)CC2)cc1)c1cccs1` (centres unmarked) [Example 51, N,N-dimethyl-1-(4-(3-(methylamino)-1-(thiophen-2-yl)propoxy)benzyl)-4-phenylpiperidin-4-amine], for which the Ki fell in the range of 100 to 500 nM.

`CNCCC(Oc1ccc(CN2CCCc3ccccc32)c(F)c1)c1cccs1` (centres unmarked) [Example 54, 3-(4-((3,4-Dihydroquinolin-1(2H)-yl)methyl)-3-fluorophenoxy)-N-methyl-3-(thiphen-2-yl)propan-1-amine]: the Ki is less than 100 nM.

Consider `CNCCC(Oc1ccc(CN2CCc3ccccc3C2)c(F)c1)c1cccs1` (centres unmarked) [Example 55, 3-(4-((3,4-Dihydroisoquinolin-2(1H)-yl)methyl)-3-fluorophenoxy)-N-methyl-3-(thiophen-2-yl)propan-1-amine], for which the Ki was less than 100 nM.
